This is an account of results in US20170202973A1 (GENENTECH, INC., priority 2009, published 2017).

The conditions of data set [1]: T-DM1 conjugate, […] IV every 3 weeks.
For data set [2] the following is noted: Phase I, cited from earlier work.
For data set [3] the following is noted: earlier Phase II, […] every 3 weeks; cited from earlier work.
[4] abbreviates: of 110 treated, 70 discontinued, data cutoff.

Like-named read-outs stand apart in the source and are kept apart here.

For the substance trastuzumab-MCC-DM1 [T-DM1], in data set [1], the “Clearance (CL)” value is 8.3 mL/day/kg and the “terminal halflife (t½)” value is 96 h. Under “110 patients, initial analysis”, the “Number of Patients with Dose Reductions to 2.4 mg/kg” value is on record as 6 patients and the “Number of Patients with Dose Reductions to 3.0 mg/kg” value is recorded as 11 patients. Besides, the “Number of Patients with Dose Reductions to 2.4 mg/kg” value (110 patients, updated analysis) worked out at 7 patients. Besides, the “patients who died from hepatic dysfunction” value (110 treated patients) is given as “One”. Moreover, the “dose-limiting cardiotoxicity or new safety signals” value (at the dose and schedule tested) is given as “no dose-limiting cardiotoxicity or new safety signals”. Where the note is “count in footnote of Table 3”, the “Reason for Dose Reduction: Grade 1 AST” value came out at 1, the “Reason for Dose Reduction: Grade 2 AST” value amounted to 1, the “Reason for Dose Reduction: Grade 2 AST + ALT” value amounted to 3 and the “Reason for Dose Reduction: Grade 2 Leukopenia” value is recorded as 2. For the setting “count in footnote of Table 3”, the “Reason for Dose Reduction: Grade 2 Thrombocytopenia” value came to 1, the “Reason for Dose Reduction: Grade 3 AST Elevation” value is given as 1, the “Reason for Dose Reduction: Grade 3 Elevation AST + ALT” value came out at 2 and the “Reason for Dose Reduction: Grade 4 Thrombocytopenia” value is on record as 1. Further, under setting [4], the “patients that discontinued treatment with one or more adverse events, %” value stood at 5.5% and the “patients that discontinued treatment with one or more adverse events, number” value is listed as 6 patients. The “maximum tolerated dose (MTD)” value in data set [2] (IV infusion every 3 weeks) was 3.6 mg/kg. In addition, the “DLT: patients with Grade 4 thrombocytopenia” value in data set [2] (treated at 4.8 mg/kg) is 2 of 3. The “patients requiring dose reduction” value in data set [3] is listed as 3 out of 112.
